Literature values as cited in patent US4520134A, “N-alkyl-4'-hydroxyacetanilides, pharmaceutical compositions comprising them and their use” (priority 1984, dated 1985).

Conditions: man and experimental animals; cited from earlier work

In the case of `OCC(S)CS` (stereo not shown) [dimethlymercaptol], the “protection against acetaminophen hepatotoxicity” value is given as “varying degrees of protection”.
